Measured values: patent US11414443B2, “Phospholipid derivatives and their use as medicaments” (USTAV MOLEKULARNI GENETIKY AV CR, V.V.I., priority 2017, dated 2022)

Tested on: tumor cell cultures C32, TIB-75, LMH
Test: Cell state and growth in tumor cell cultures, controls and comparison products
Conditions: 0-240 μM, 16 hours of culture
Method: As a control, the starting phospholipids were used at the same concentrations and conditions.
The cytotoxic activity of the products was tested in tumor cell cultures C32 (human melanoma), TIB-75 (inducing murine hepatocarcinoma), LMH (chicken hepatocarcinoma).
(§1) A) C32 cells were cultured in D-MEM medium containing 10% fetal serum and penicillin+streptomycin at 37° C. in air/5% CO2 atmosphere saturated with water vapor. Each well contained 5×10^4 cells and 0.5 ml medium. The tested products were added to the cells at concentrations of 0, 2.5, 5, 10, 20, 40, 80, 160 and 240 μM. After 16 hours of culture, cell state was recorded.
as §1, with “B) LMH” for “A) C32”, “phospholipids” for “products”
as §1, with “C) TIB-75” for “A) C32”, “phospholipids” for “products”

N-palmitoyl-phosphatidylethanolamine [N-palmitoyl PE]
cytotoxic activity: effect on phenotype and rate of cell growth: did not affect the phenotype or reduce the rate of cell growth
